Data taken from patent US12187706B2, “NLRP3 modulators” (INNATE TUMOR IMMUNITY, INC., priority 2019, dated 2025).

Chains of the proteins cited; added tags and fusions are not shown.
UniProt Q96P20, whole entry: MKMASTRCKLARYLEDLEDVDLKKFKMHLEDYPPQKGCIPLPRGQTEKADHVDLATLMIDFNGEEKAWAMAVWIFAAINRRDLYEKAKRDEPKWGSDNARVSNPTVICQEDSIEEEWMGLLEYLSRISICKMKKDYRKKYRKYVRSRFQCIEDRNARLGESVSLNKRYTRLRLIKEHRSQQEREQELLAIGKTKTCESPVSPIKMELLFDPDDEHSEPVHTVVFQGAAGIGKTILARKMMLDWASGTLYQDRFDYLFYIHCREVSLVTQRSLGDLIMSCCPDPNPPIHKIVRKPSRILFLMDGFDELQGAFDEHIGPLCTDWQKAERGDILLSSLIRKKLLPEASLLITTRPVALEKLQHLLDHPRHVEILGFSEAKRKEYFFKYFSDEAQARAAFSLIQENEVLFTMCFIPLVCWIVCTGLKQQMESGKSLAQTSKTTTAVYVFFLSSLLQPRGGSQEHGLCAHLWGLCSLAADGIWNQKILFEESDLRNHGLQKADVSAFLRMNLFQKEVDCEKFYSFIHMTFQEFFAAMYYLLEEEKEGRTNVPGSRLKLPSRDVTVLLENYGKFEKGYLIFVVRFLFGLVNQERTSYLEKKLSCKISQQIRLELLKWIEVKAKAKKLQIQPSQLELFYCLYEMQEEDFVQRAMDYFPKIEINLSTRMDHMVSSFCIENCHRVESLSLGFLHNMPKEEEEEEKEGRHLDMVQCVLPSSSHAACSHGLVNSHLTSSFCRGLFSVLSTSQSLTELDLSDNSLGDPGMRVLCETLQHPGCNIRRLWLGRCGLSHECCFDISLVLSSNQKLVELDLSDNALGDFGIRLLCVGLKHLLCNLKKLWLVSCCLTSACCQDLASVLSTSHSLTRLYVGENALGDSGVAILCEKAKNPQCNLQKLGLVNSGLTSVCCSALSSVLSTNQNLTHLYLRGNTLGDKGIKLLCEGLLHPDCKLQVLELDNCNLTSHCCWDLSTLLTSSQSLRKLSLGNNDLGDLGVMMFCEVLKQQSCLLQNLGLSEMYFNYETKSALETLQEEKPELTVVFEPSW

Target: NLRP3 (Homo sapiens, UniProt Q96P20)
Test: Measurement of IL-1β production in PMA-differentiated THP-1 cells (NLRP3 hIL1B)
Assay type: cell-based
Conditions: read-out: NLRP3 hIL1B EC50

Nc1nc(NCCO)c2c(Cl)cc(-c3cc[nH]n3)cc2n1
EC50: 1080 nM
